Test results as given in patent US8835470B2, “Mandelamide heterocyclic compounds” (Bristol-Myers Squibb Company, priority 2010, dated 2014).

By UniProt entry, the sequences of proteins in these tests, tags left out.
UniProt P21453, whole entry: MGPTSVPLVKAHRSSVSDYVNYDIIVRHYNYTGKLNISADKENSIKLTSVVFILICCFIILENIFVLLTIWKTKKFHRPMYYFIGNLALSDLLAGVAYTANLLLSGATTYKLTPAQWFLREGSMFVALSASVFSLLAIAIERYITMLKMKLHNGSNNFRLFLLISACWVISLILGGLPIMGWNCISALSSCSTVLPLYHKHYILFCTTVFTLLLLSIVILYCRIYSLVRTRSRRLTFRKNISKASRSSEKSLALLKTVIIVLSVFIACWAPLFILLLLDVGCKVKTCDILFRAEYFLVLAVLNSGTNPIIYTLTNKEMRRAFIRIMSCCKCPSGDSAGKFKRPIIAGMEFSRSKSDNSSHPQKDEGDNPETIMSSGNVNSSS

What was measured:
S1P1 [1] = molecular target: T1, S1P1 (Homo sapiens (Human), UniProt P21453); assay: S1P1 Binding Assay; details: membranes from CHO cells expressing human S1P1; 33P-S1P ligand; rounded to two digits
Procedure: Membranes were prepared from CHO cells expressing human S1P1. Cells were dissociated in buffer containing 20 mM HEPES, pH 7.5, 50 mM NaCl, 2 mM EDTA and Protease Inhibitor cocktail (Roche), and disrupted on ice using the Polytron homogenizer. The homogenate was centrifuged at 20,000 rpm (48,000 G) and the supernatant was discarded. The membrane pellets were resuspended in buffer containing 50 mM HEPES, pH 7.5, 100 mM NaCl, 1 mM MgCl2, 2 mM EDTA and stored in aliquots at −80° C. after protein concentration determination. Membranes (2 μg/well) and 0.03 nM final concentration of ^33P-S1P ligand (1 mCi/ml, American Radiolabeled Chemicals) were added to the compound plates. Binding was performed for 45 minutes at room temperature, terminated by collecting the membranes onto GF/B filter plates, and radioactivity was measured by TOPCOUNT®. The competition data of the test compounds over a range of concentrations was plotted as percentage inhibition of radioligand specific binding. The IC50 is defined as the concentration of competing ligand needed to reduce specific binding by 50%.
Table A below lists S1P1 Binding IC50 values from the following examples of this invention measured in the S1P1 binding assay described hereinabove. The results in Table A were rounded to two digits.

S1P1 [2] = molecular target: T1, S1P1; assay: Receptor [35S] GTPγS Binding Assay, S1P1; assay type: biochemical; details: membranes from S1P1/CHO cells; [35S]GTP
Procedure: Receptor [35S] GTPγS Binding Assays
Membranes prepared from S1P1/CHO cells or EDG3-Ga15-bla HEK293T cells were added to the compound plate (40 μl/well, final protein 3 μg/well) with MULTIDROP®. [^35S]GTP (1250 Ci/mmol, Perkin Elmer) was diluted in assay buffer: 20 mM HEPES, pH7.5, 10 mM MgCl2, 150 mM NaCl, 1 mM EGTA, 1 mM DTT, 10 μM GDP, 0.1% fatty acid free BSA, and 10 μg/ml Saponin to 0.4 nM. 40 μl of the [^35S] GTP solution was added to the compound plate with a final concentration of 0.2 nM. The reaction was kept at room temperature for 45 min. At the end of incubation, all the mixtures in the compound plate were transferred to a 384 well FB filter plates via GPCR robot system. The filter plate was washed with water 4 times by using the modified manifold Embla plate washer and dried at 60° C. for 45 min. 30 μl of MicroScint 20 scintillation fluid was added to each well for counting at Packard TOPCOUNT®.
A larger value for the GTPγS S1P3 EC50 value indicated less activity in the GTPγS S1P3 binding assay.

IC50 (S1P1 [1]): 43 nM
EC50 (S1P1 [2]): 162 nM
SMILES: O=C(NC1CCC1)C(O)c1ccc(-c2noc(-c3onc(-c4ccccc4)c3C(F)(F)F)n2)cc1 (racemic) [Example 116, (R/S)-N-Cyclobutyl-2-hydroxy-2-(4-(5-(3-phenyl-4-(trifluoromethyl)isoxazol-5-yl)-1,2,4-oxadiazol-3-yl)phenyl)acetamide]
